Values of other authors, collected in patent US20240050950A1, “GRADIENT-BASED MICROFLUIDIC CIRCUIT, DEVICE, AND METHOD FOR PERFORMING AN ASSAY” (priority 2020, published 2024).

Settings: Table 1, antimicrobial agents/drugs; cited from earlier work

| Substance | Molar volume [cm^3] |
| --- | --- |
| Duramycin | 1370.8 ± 5.0 |
| Gentamicin | 350.1 ± 5.0 |
| Spiramycin | 692.8 ± 5.0 |
